Source: ChEMBL document CHEMBL4396950, “A rational search for discovering potential neutraligands of human complement fragment 5a (hC5a)” (Bioorg Med Chem, 2019)
Active and inactive are the calls of the source. The rule behind the calls is not given here.

Amino acid sequences for entries named in this document (tags omitted).
UniProt P01031, whole entry: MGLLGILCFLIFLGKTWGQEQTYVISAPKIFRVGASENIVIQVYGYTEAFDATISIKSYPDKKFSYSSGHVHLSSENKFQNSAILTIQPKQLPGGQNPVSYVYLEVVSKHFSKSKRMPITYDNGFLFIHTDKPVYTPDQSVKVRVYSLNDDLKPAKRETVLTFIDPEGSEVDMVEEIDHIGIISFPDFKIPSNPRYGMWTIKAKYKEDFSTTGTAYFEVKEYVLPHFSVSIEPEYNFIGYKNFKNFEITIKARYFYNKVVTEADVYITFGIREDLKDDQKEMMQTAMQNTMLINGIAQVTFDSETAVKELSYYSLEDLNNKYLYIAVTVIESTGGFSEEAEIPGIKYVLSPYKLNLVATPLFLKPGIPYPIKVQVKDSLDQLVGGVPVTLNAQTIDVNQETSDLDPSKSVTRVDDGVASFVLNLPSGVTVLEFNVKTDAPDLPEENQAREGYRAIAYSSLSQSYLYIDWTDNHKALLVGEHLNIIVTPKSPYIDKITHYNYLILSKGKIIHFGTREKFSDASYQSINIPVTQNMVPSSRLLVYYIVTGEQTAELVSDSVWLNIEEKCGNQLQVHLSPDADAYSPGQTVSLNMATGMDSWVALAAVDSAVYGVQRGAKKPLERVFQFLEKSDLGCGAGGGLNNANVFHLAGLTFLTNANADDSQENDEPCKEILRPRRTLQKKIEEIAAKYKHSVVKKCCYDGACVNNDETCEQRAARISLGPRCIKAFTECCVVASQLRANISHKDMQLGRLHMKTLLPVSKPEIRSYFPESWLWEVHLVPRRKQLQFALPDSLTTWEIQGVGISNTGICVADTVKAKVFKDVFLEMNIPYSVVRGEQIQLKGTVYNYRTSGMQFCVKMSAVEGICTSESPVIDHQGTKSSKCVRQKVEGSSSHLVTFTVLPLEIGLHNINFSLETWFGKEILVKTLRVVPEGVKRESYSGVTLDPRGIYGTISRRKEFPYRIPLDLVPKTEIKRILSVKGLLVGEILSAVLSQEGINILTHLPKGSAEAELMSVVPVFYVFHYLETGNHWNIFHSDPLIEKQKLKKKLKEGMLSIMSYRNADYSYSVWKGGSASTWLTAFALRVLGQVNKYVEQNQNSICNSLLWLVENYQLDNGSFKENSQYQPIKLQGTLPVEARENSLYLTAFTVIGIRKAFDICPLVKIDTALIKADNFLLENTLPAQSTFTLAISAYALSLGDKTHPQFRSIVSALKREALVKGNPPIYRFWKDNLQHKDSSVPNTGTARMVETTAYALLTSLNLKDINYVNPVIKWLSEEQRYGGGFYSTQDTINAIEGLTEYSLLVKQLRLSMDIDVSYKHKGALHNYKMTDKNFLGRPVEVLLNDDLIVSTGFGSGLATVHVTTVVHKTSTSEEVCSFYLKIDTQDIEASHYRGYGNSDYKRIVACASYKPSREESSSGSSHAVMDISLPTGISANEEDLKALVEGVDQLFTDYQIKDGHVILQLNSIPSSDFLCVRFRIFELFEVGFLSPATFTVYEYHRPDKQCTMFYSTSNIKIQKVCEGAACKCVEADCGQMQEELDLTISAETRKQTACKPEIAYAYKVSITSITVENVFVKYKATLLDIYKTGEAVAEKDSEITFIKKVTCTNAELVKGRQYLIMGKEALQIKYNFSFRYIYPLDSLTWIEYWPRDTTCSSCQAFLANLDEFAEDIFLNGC

Columns and labels:
Complement C5 [1] = molecular target: T1, Complement C5 (Homo sapiens, UniProt P01031); experiment: Binding affinity to recombinant human C5a assessed as loss of super secondary structure at > 10 uM incubated for 1 hr at 4 degC by circular dichroism analysis
Complement C5 [2] = molecular target: T1, Complement C5; experiment: Binding affinity to human C5a assessed as induction of conformational change by measuring red shift in absorption maxima at 1 uM by fluorescence analysis
Complement C5 [3] = molecular target: T1, Complement C5; experiment: Binding affinity to recombinant human C5a assessed as conformational change =< 1 uM at 4 degC incubated for 1 hr by circular dichroism analysis
Complement C5 [4] = molecular target: T1, Complement C5; experiment: Binding affinity to human C5a assessed as loss of secondary structure by measuring red shift in absorption maxima at 10 to 100 uM by fluorescence analysis
Complement C5 [5] = molecular target: T1, Complement C5; experiment: Induction of human recombinant C5a unfolding by circular dichroism analysis
Complement C5 [6] = molecular target: T1, Complement C5; experiment: Binding affinity to recombinant human C5a assessed as conformational change at 1 to 100 uM incubated for 1 hr at 4degC by circular dichroism analysis
Complement C5 [7] = molecular target: T1, Complement C5; experiment: Induction of human recombinant C5a destabilization assessed as protein structure helicity up to 10 uM by circular dichroism analysis
Complement C5 [8] = molecular target: T1, Complement C5; experiment: Binding affinity to human C5a assessed as change in enthalpy at 80 uM by isothermal titration calorimetry
Complement C5 [9] = molecular target: T1, Complement C5; experiment: Binding affinity to human C5a assessed as induction of conformational change with no shift in absorption maxima at 1 uM by fluorescence analysis

SMILES	Activity (Complement C5 [1])	Activity (Complement C5 [2])	Activity (Complement C5 [3])	Activity (Complement C5 [4])	Activity (Complement C5 [5])	Activity (Complement C5 [6])	Activity (Complement C5 [7])	Activity (Complement C5 [8])	Activity (Complement C5 [9])
CC(C(=O)O)c1ccc2c(c1)[nH]c1ccc(Cl)cc12 (stereo not given) [CARPROFEN]	Active	Active	Active	Active	Active	Active	5%	–	–
O=C(c1ccc(OCCN2CCCCC2)cc1)c1c(-c2ccc(O)cc2)sc2cc(O)ccc12 [RALOXIFENE]	Active	–	Active	Active	Active	Active	5%	Active	Active
